Here are results for one compound from paper PMC8245773, “Brevibacillin 2V, a Novel Antimicrobial Lipopeptide With an Exceptionally Low Hemolytic Activity” (Frontiers in Microbiology, 2021).

The test system of this assay is K. pneumoniae LMG20218. Briefly: Synergy assay, checkerboard method. To be noted: antibiotic + brevibacillin, synergistic ≤0.5.

Take `CO[C@H]1/C=C/O[C@@]2(C)Oc3c(C)c(O)c4c(O)c(c(/C=N/N5CCN(C)CC5)c(O)c4c3C2=O)NC(=O)/C(C)=C\C=C\[C@H](C)[C@H](O)[C@@H](C)[C@@H](O)[C@@H](C)[C@H](OC(C)=O)[C@@H]1C` [Rifampicin]: the FICI was 0.281.
